Legend:
MDCK cells = test: Impairment in colony formation capability; conditions: phosphoric acid buffer (FIG. 7)
Vero cells = test: Impairment in colony formation capability; conditions: phosphoric acid buffer (FIG. 7)
HEp-2 cells [1] = tested on: HEp-2 cells
HEp-2 cells [2] = test: Impairment in colony formation capability; conditions: phosphoric acid buffer (FIG. 7)

## chlorous acid [Chlorous acid aqueous solution]
MDCK cells
  impairment action in comparison to that of sodium hypochlorite: about ¼
Vero cells
  concentration at which impairment in colony formation was observed: > 20 ppm
HEp-2 cells [1]; 20 minutes incubation, trypan blue (FIG. 5)
  concentration giving dead cells at an amount similar to sodium hypochlorite at 0.5 ppm: 50 ppm
HEp-2 cells [1]; FIG. 5
  cytotoxic action relative to sodium hypochlorite: about 1/100
HEp-2 cells [1]; buffers of various pH (FIG. 6)
  concentration achieving a ratio of dead cells similar to a minute concentration of sodium hypochlorite: ≥ 100 ppm
  difference in cytotoxic action versus sodium hypochlorite: 100 fold
HEp-2 cells [2]
  concentration at which impairment in colony formation was observed: > 20 ppm

Source: patent US20160113282A1 (HONBU SANKEI CO., LTD., priority 2013, published 2016)
